B1: Protein INCA1 (Homo sapiens), Q0VD86 (parent)
chain: MQVQDDGVNLIPFAKCSRVVSRSPPPRLPSQSLRPMPQRYGDVFWKNLNQRPTPTWLEEQHIPPMLRATGCSQLGLYPPEQLPPPEMLWRRKKRRPCLEGMQQQGLGGVPARVRAVTYHLEDLRRRQSIINELKKAQWGSSGAASEPVVLGEEGCGFPSTNEYPDLEEERATYPQEEDRFLTPGRAQLLWSPWSPLDQEEACASRQLHSLASFSTVTARRNPLHNPWGMELAASEE
B2: T-cell leukemia/lymphoma protein 1A (Homo sapiens), P56279 (parent)
chain: MAECPTLGEAVTDHPDRLWAWEKFVYLDEKQHAWLPLTIEIKDRLQLRVLLRREDVVLGRPMTPTQIGPSLLPIMWQLYPDGRYRSSDSSFWRLVYHIKIDGVEDMLLELLPDD
B3: Histone-lysine N-methyltransferase SUV39H2 (Homo sapiens), Q9H5I1 (parent)
chain: MAAVGAEARGAWCVPCLVSLDTLQELCRKEKLTCKSIGITKRNLNNYEVEYLCDYKVVKDMEYYLVKWKGWPDSTNTWEPLQNLKCPLLLQQFSNDKHNYLSQVKKGKAITPKDNNKTLKPAIAEYIVKKAKQRIALQRWQDELNRRKNHKGMIFVENTVDLEGPPSDFYYINEYKPAPGISLVNEATFGCSCTDCFFQKCCPAEAGVLLAYNKNQQIKIPPGTPIYECNSRCQCGPDCPNRIVQKGTQYSLCIFRTSNGRGWGVKTLVKIKRMSFVMEYVGEVITSEEAERRGQFYDNKGITYLFDLDYESDEFTVDAARYGNVSHFVNHSCDPNLQVFNVFIDNLDTRLPRIALFSTRTINAGEELTFDYQMKGSGDISSDSIDHSPAKKRVRTVCKCGAVTCRGYLN
B4: TNFAIP3-interacting protein 1 (Homo sapiens), Q15025 (parent)
chain: MEGRGPYRIYDPGGSVPSGEASAAFERLVKENSRLKEKMQGIKMLGELLEESQMEATRLRQKAEELVKDNELLPPPSPSLGSFDPLAELTGKDSNVTASPTAPACPSDKPAPVQKPPSSGTSSEFEVVTPEEQNSPESSSHANAMALGPLPREDGNLMLHLQRLETTLSVCAEEPDHGQLFTHLGRMALEFNRLASKVHKNEQRTSILQTLCEQLRKENEALKAKLDKGLEQRDQAAERLREENLELKKLLMSNGNKEGASGRPGSPKMEGTGKKAVAGQQQASVTAGKVPEVVALGAAEKKVKMLEQQRSELLEVNKQWDQHFRSMKQQYEQKITELRQKLADLQKQVTDLEAEREQKQRDFDRKLLLAKSKIEMEETDKEQLTAEAKELRQKVKYLQDQLSPLTRQREYQEKEIQRLNKALEEALSIQTPPSSPPTAFGSPEGAGALLRKQELVTQNELLKQQVKIFEEDFQRERSDRERMNEEKEELKKQVEKLQAQVTLSNAQLKAFKDEEKAREALRQQKRKAKASGERYHVEPHPEHLCGAYPYAYPPMPAMVPHHGFEDWSQIRYPPPPMAMEHPPPLPNSRLFHLPEYTWRLPCGGVRNPNQSSQVMDPPTARPTEPESPKNDREGPQ

The first assay covers variants of B1. The following applies: with grb2_human GRB2.
For the variant E153D, the “effect of a mutation on the interaction” value is “with no effect”.

The variants in a further assay derive from B1. The note with it: with co8a1_human COL8A1, P27658.
Consider E153D, for which the “effect of a mutation on the interaction” value is reported as “with no effect”.

Variants of B2 are the subject of a further assay. The following applies: with ttc33_human TTC33.
Regarding V103M, the “effect of a mutation on the interaction” value is recorded as “with no effect”.

The variants in a further assay derive from B2. The note with it: with dnm3a_human DNMT3A.
For the variant V103M, the “effect of a mutation on the interaction” value is reported as “with no effect”.

The variants in a further assay derive from B2. The following applies: with caps1_human CADPS.
In the case of V103M, the “effect of a mutation on the interaction” value is listed as “with no effect”.

In another assay the parent is B3. The following applies: with pnma1_human PNMA1, Q8ND90.
In the case of S182T, the “effect of a mutation on the interaction” value was “with no effect”.

Another assay covers variants of B4. The following applies: with mo4l2_human MORF4L2, Q15014.
Take K30T: the “effect of a mutation on the interaction” value is given as “with no effect”.
On to V16M, for which the “effect of a mutation on the interaction” value is reported as “with no effect”.

Variants of B4 are the subject of a further assay. The note with it: with ndc80_human NDC80, O14777.
Regarding K30T, the “effect of a mutation on the interaction” value was “with no effect”.
The same measure, in the same setting: the value for V16M was “with no effect”.

Variants of B4 are the subject of another assay. The following applies: with mo4l1_human MORF4L1.
K30T: the “effect of a mutation on the interaction” value is reported as “with no effect”.
The same measure, in the same setting: to V16M belongs “with no effect”.

The variants in another assay derive from B4. The note with it: with mlp3b_human MAP1LC3B.
As to K30T, the “effect of a mutation on the interaction” value was “with no effect”.
On the same count and under the same terms, the value for V16M was “with no effect”.

The variants in the next assay derive from B4. The note with it: with gbrl1_human GABARAPL1.
For the variant K30T, the “effect of a mutation on the interaction” value is “with no effect”.
For V16M, the “effect of a mutation on the interaction” value was “with no effect”.

Variants of B4 are the subject of a further assay. The following applies: with tean2_human TCEANC2, Q96MN5.
Regarding K30T, the “effect of a mutation on the interaction” value is listed as “with no effect”.
In the case of V16M, the “effect of a mutation on the interaction” value is given as “with no effect”.

The next assay covers variants of B4. The following applies: with tf2b_human GTF2B.
Take K30T: the “effect of a mutation on the interaction” value is reported as “with no effect”.
The same measure, in the same setting: to V16M belongs “with no effect”.

In a further assay the parent is B4. The following applies: with optn_human OPTN.
As to K30T, the “effect of a mutation on the interaction” value was “with no effect”.
On the same count and under the same terms, to V16M belongs “with no effect”.

These data come from IntAct's records for PubMed 31515488.
